These results are taken from PubChem BioAssay AID570 (The Scripps Research Institute Molecular Screening Center, 2006).

Molecules are shown by their SMILES. Only a part is listed here, and it is no random draw. Active and inactive are the calls of the source.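 Rule for the calls: active = inhibition above the mean of compound-free control plate wells plus 3 SD (cut at about 14% in these data); inactive = the rest.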

This assay deals with Collagenase 3 (Homo sapiens) (UniProt P45452). The assay can be described thus: human MMP13 inhibitors, primary screen, biochemical, FRET peptide cleavage (AID 570).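 Note: 0% = DMSO wells and 100% = wells with reference MMP-13 inhibitor after basal subtraction.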 As to conditions: MMP-13 fTHP FRET cleavage, Mca fluorescence; at 4 µM; hits give high values.
On to `Cc1nn(-c2ccccc2)c2c1P(=O)(N1CCOCC1)N(C)C(c1ccccc1)=N2` (stereo not given), for which the inhibition is inactive: -2.9%.
The same measure for `O=P1(Nc2ccc(Br)cn2)COc2ccccc2OC1`: inactive: 0.8%; for `Cc1ccc(OCC(=O)OC2CN3CCC2CC3)cc1` (stereo not given): inactive: -1.8%.
To `O=P1(Nc2ncccn2)COc2ccccc2OC1` belongs inactive: -3.5%.
Turning to `Clc1n[nH]nc1-c1nn[nH][15n]1`, the inhibition is inactive: -5.6%.
The same measure for `O=P1(Nc2ccccn2)COc2ccccc2OC1`: inactive: -3.4%; for `Cc1cccc(OCC(=O)OC2CN3CCC2CC3)c1` (stereo not given): inactive: 5.5%.
Turning to `O=P(Nc1nccs1)(c1ccccc1)c1nc2ccccc2s1` (stereo not given), the inhibition was inactive: 1.2%.
On to `CCOP1(=S)c2c(C)nn(CCC#N)c2N=C(c2ccccc2F)N1C` (stereo not given), for which the inhibition is inactive: 6.8%.
To `CCOP1(=S)c2c(C)nn(CCC#N)c2N=C(c2ccc(F)cc2)N1C` (stereo not given) belongs inactive: -8.9%.
The same measure for `O=C(OC1CN2CCC1CC2)C12CC3CC(CC(C3)C1)C2` (stereo not given): inactive: -3%; for `O=C(COc1ccccc1)OC1CN2CCC1CC2` (stereo not given): inactive: -1.5%; for `COP1(=S)c2c(C)nn(CCC#N)c2N=C(c2ccc(F)cc2)N1C` (stereo not given): inactive: 0.7%.
To `CCc1nc2c(n1)c1c(non1O)c1c2no[n+]1[O-]` belongs inactive: 4.2%; to `Cc1c2non([O-])c-2c(C)[n+](=O)[n+]1[O-]`, inactive: -4.2%.
As to `COC(=O)c1cc2c(s1)N=C(c1ccccc1)N(C)P2(=O)N1CCOCC1` (stereo not given), the inhibition is inactive: 2%.
With `O=P1(Nc2nc3ccc(Cl)cc3s2)COc2ccccc2O1` (stereo not given), the inhibition is inactive: 1.8%.
To `c1nnnn1CCn1cnnn1` belongs inactive: -0.3%.
The same measure for `O=P(Nc1nccs1)(c1ccccc1)c1ccccc1`: inactive: -0.4%.
The same measure for `O=C(OC1CN2CCC1CC2)c1cccc(Cl)c1` (stereo not given): inactive: 0%.

As usually defined, the inhibition is the relative decrease from the control value, in per cent.
